# The list shows a part of the results, in another mix than the full data. Some tests of the compounds listed are not included; inactive here does not mean inactive elsewhere. Records with an inconclusive call do not appear. Activity calls are given as the source filed them. The call rests on the fitted dose curve; in most records, active means well fitted inhibition curve with a large enough effect; inconclusive means small, poorly fitted or top-dose-only effect; inactive means no such curve, though single readings can be large or run the other way.
# The chains behind the UniProt entries cited, without tags or fusion partners.
# UniProt P27695, whole entry: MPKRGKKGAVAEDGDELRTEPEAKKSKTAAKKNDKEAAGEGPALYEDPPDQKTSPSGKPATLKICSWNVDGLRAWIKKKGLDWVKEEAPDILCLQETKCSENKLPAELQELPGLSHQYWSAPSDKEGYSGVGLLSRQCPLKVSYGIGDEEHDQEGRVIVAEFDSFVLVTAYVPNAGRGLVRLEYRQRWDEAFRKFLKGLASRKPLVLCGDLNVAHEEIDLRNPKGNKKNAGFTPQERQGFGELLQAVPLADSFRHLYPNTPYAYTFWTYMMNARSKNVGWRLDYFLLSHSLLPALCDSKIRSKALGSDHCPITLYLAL
# Target: DNA repair nuclease/redox regulator APEX1 (Homo sapiens) (UniProt P27695)
# Experiment: qHTS Assay for Inhibitors of the Human Apurinic/apyrimidinic Endonuclease 1 (APE1);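 further: plate controls were vehicle for no effect and reference inhibitor for full effect; nearly all actives have a fitted effect of over 55% in size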
# Details: recombinant APE1, TAMRA/BHQ-2 abasic DNA cleavage fluorescence; at 65.8 µM (top of the series)
row,Structure (SMILES),"activity change, negative = inhibition"
1,O=C(NCC1(N2CCCCC2)CCCCC1)c1cc([N+](=O)[O-])ccc1Cl,inactive: 3.46%
2,CN1[C@@H]2CC[C@H]1CC(OC(=O)C(O)(c1ccccc1)c1ccccc1)C2 (some centres undefined),inactive: 47.3%
3,CC(C)N1C(=O)CC2(CCN(CCOC(=O)C(O)(c3ccccc3)c3ccccc3)CC2)C1=O,inactive: 2.66%
4,COc1cc(SC)ccc1C(=O)NCC1(N(C)C)CCCCC1,inactive: 7.27%
5,CCN(CC)CC(C)C(C)OC(=O)C(O)(c1ccccc1)c1ccccc1 (centres undefined),inactive: 23.9%
6,Cc1ccc(C(=O)NCC2(N3CCCCC3)CCCCC2)cc1,inactive: 13.9%
7,CN(C)C1CCCC1OC(=O)C(O)(c1ccccc1)c1ccccc1 (centres undefined),inactive: 0.685%
8,CN(C)c1ccc(C(=O)NCC2(N(C)C)CCCCC2)cc1,inactive: 8.38%
9,Cc1ccccc1C(=O)NCC1(N2CCCCC2)CCCCC1,inactive: 4.19%
10,O=C(NCC1(N2CCCCC2)CCCCC1)c1cc(F)c(F)cc1Cl,inactive: 4.02%
11,C=CCN1CCN(CCOC(=O)C(O)(c2ccccc2)c2ccccc2)CC1,inactive: 0.546%
12,O=C(NCC1(N2CCCCC2)CCCCC1)c1cccc(Br)c1,inactive: -0.567%
13,Cc1cc(C(=O)NCC2(N3CCCCC3)CCCCC2)ccc1[N+](=O)[O-],inactive: 57.3%
14,CCN1CCCC(OC(=O)C2(O)c3ccccc3C=Cc3ccccc32)C1 (centres undefined),inactive: -0.0195%
15,COc1ccc(C(=O)NCC2(N(C)C)CCCCC2)cc1,inactive: -3.38%
16,CN(C)C1(CNC(=O)c2ccc(Br)cc2)CCCCC1,inactive: 63%
17,COc1cc(C(=O)NCC2(N(C)C)CCCCC2)c([N+](=O)[O-])cc1OC,inactive: 4.65%
18,COc1ccc(Cl)cc1C(=O)NCC1(N(C)C)CCCCC1,inactive: -2.35%
19,COc1cccc(C(=O)NCC2(N3CCCCC3)CCCCC2)c1,inactive: 0.617%
20,O=C(NCC1(N2CCCCC2)CCCCC1)c1cccc(Cl)c1,inactive: -9.31%
21,O=C(OC1CN2CCC1CC2)C(CO)(c1ccccc1)c1ccccc1 (centres undefined),inactive: -1.2%
22,COc1ccc(Br)c(C(=O)NCC2(N3CCCCC3)CCCCC2)c1,inactive: 6.15%
23,CN(C)c1cccc(C(=O)NCC2(N(C)C)CCCCC2)c1,inactive: -6.52%
24,CC(C)Oc1ccc(C(=O)NCC2(N(C)C)CCCCC2)cc1,inactive: 4.87%

# Reference: PubChem BioAssay AID2517 (National Center for Advancing Translational Sciences (NCATS), 2010)
